Biological target: 5-hydroxytryptamine receptor 6 (Homo sapiens, UniProt P50406)
Assay: Antagonist activity at cloned human 5-HT6 receptor expressed in human HeLa cells assessed as inhibition of 5HT-induced cyclic AMP formation
Type: functional, cell-based
Outline: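 Cyclase functional assay at 5-HT6 receptor, antagonism measured against the natural agonist 5-HT; compounds tested as HCl salts; efficacy expressed as Imax, percentage of maximal antagonism relative to that obtained with SB-271047.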

Amino acid sequences for entries named in this document (tags omitted).
UniProt P50406, whole entry: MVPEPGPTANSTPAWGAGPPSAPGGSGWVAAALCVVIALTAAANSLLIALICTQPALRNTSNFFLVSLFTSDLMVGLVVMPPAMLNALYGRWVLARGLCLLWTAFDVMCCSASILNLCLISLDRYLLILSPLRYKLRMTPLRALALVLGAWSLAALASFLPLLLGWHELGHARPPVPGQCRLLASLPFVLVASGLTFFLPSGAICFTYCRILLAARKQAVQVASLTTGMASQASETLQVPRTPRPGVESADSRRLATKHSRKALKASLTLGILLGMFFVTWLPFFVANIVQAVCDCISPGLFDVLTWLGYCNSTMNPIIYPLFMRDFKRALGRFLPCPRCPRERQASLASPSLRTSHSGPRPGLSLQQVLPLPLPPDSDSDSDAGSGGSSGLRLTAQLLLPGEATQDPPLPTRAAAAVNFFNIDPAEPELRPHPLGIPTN

## CC(C)[C@H](N)CNc1ccc2[nH]nc(S(=O)(=O)c3cccc4ccccc34)c2c1
  IC50: 103 nM

From ChEMBL document CHEMBL1641413, “Identification of 3-sulfonylindazole derivatives as potent and selective 5-HT(6) antagonists” (Bioorg Med Chem, 2011)
